Assay results from patent US9617282B2, “Macrocyclic compounds as IRAK4 inhibitors for the treatment of inflammatory diseases” (BIOGEN MA INC., priority 2013, dated 2017).

The chains behind the UniProt entries cited, without tags or fusion partners.
UniProt Q9NWZ3, whole entry, species assumed: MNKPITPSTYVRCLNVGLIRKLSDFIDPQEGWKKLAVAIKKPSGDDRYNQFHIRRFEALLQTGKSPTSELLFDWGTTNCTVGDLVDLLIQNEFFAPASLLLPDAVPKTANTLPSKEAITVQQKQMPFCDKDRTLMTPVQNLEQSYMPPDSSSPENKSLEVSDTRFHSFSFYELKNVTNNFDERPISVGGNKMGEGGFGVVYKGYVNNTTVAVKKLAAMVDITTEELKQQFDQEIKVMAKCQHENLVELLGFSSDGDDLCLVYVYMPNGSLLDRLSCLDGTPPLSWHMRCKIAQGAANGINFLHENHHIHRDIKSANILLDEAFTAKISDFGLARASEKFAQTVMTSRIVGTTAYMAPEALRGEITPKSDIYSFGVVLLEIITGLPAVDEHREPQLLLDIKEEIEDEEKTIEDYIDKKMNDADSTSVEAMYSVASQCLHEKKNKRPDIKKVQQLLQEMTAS

Legend:
[1] = target: IRAK4 (Homo sapiens (Human), UniProt Q9NWZ3); assay: IRAK-4 biochemical kinase assay, AlphaScreen format
Procedure: The biochemical assay is in a AlphaScreen format. The kinase reaction is based on the IRAK-4 phosphorylation of a biotin labeled peptide. The phosphopeptide is incubated with anti-phosphothreonine antibody as well as streptavidin- and protein A-coated beads. Binding of the protein-A coated beads to the antibody and the streptavidin beads to the peptide, leads to an energy transfer from one bead to the other, ultimately producing a luminescent/fluorescent signal.

[2] = test system: A549 cells; assay: Cell-based assay, IL-6 ELISA quantification in IL-1 beta stimulated A549 cells; conditions: Homo sapiens, A549, read-out: Celluar Data EC50 (uM)
Procedure: The cell-based assays is based on IL-6 ELISA quantification. Briefly, A549 cells are cultured in DMEM with 10% FBS medium. When cells reach 80% confluence they are trypsin treated and seeded in 96-well plate at 2.5×10^4 cells/well. Then, 20 ul of compound serial dilutions (starting at 10 uM, 10 points) are added to the cell plate; incubate for 1 hour at 37 C and stimulated with 2 ng/ml human IL-1 beta 37 C overnight. The next day 100 ul of cell supernatant per well are analyzed on a Human IL-6 Quantikine ELISA kit from R&D Systems.

| Structure (SMILES) | IC50 [1] | EC50 [2] |
| --- | --- | --- |
| CN(C)C(=O)c1ccc2c(c1)NC(=O)c1csc(n1)-c1ccnc(c1)NCCCCCO2 [Compound 20] | < 100 nM |  |
| O=C1Nc2c[nH]nc2C(=O)NCCOCCOc2cc(ccn2)-c2nc1cs2 [Example 107] | < 100 nM | > 10 µM |
